Test: Erlotinib Cmax in healthy volunteers
Details: human, in vivo, single oral dose of 100 mg, read-out: Cmax converted to molar

C#Cc1cccc(Nc2ncnc3cc(OCCOC)c(OCCOC)cc23)c1 [Erlotinib]
Cmax: ~3.23 µM

From patent publication US20160106439A1, “PNEUMATIC TOURNIQUET” (BIONUMERIK PHARMACEUTICALS, INC., priority 2013, published 2016)
